These results are taken from patent US12544463B2, “Deuterium substituted positron emission tomography (PET) imaging agents and their pharmacological application” (Five Eleven Pharma Inc., priority 2017, dated 2026).

Chains of the proteins cited; added tags and fusions are not shown.
UniProt Q01827, whole entry: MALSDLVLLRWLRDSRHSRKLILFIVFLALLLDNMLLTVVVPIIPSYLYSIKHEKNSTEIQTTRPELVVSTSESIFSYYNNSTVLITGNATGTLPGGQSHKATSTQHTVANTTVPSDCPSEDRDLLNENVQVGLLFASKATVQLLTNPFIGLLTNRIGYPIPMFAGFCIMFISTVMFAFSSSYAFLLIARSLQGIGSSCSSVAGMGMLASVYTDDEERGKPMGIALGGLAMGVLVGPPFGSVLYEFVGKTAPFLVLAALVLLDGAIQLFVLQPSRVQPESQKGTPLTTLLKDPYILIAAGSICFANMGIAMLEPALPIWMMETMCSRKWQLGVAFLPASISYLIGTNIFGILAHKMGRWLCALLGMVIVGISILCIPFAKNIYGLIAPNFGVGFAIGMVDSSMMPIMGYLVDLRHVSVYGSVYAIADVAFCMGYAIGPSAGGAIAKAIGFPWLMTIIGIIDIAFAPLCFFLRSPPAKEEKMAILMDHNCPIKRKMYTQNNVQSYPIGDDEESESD

This assay concerns the target T1, vesicular monoamine transporter 2 (VMAT2) (Rattus norvegicus, UniProt Q01827).
T1 construct: Tissue homogenates of striatum (dissected from rat brain) were prepared; from tissue; host or cells: rat brain striatum homogenate
The assay is described as follows: In vitro binding assay for Ki determination, rat striatum homogenates. Particulars: Avg ± SD, n = 3, read-out: Ki of cold competing drug. As for the experimental part: Tissue homogenates of striatum (dissected from rat brain) were prepared in 50 mM of HEPES, pH 7.5, and 0.3 M of sucrose. Compounds were examined for their ability to compete for the binding of ^18F-AV-133 or ^18F-AV-133-D6 (^18F-Ia) (0.15-0.2 nM) at concentrations ranging from 10^−7 to 10^−12 M. The binding assays were performed in glass tubes (12×75 mm) in a final volume of 0.25 mL. […] After incubation for 90 min at room temperature, the bound ligand was separated from the free ligand by filtration through glass fiber filters. The filters were washed three times with 4 mL of ice-cold PBS buffer, pH 7.4 and the radioactivity on the filters was counted with a gamma counter (WIZARD^2, Perkin-Elmer).

Read-outs that look alike come from different tables or passages of the source.

Usually Ki stands for a dissociation constant, usually derived from enzyme kinetics or from competition with a known ligand. As to `COc1cc2c(cc1OC)C1CC(=O)[C@H](CC(C)C)CN1CC2` (mixture of isomers) [(±) TBZ, (±)-tetrabenazine], the Ki turned out to be 1.65 ± 0.07 nM (hot ligand ^18F-AV-133-D6) and 1.49 ± 0.24 nM (hot ligand ^18F-AV-133).
